Antibody variant affinities, Ab-95 light chain, assay 2

The target is the same throughout: PDVDLGDISGINAS, from the HR2 region of SARS-CoV-2 spike.

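AAYL52 was designed without a model: most single CDR substitutions and a random sample of double and triple ones. The assay is AlphaSeq: two haploid yeast populations carry antibody and antigen on their surface. Mating (16 h, 30 °C) was followed by selection of diploids and sequencing of their barcodes. Scores were corrected for input abundance and mapped to Kd with protein pairs of known affinity run in the same pool. Mating was done three times.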

Each scFv is VH, a (GGGGS)3 linker, VL, as in the parent Ab-95, and differs from it in the CDRs of the light chain only.
VH: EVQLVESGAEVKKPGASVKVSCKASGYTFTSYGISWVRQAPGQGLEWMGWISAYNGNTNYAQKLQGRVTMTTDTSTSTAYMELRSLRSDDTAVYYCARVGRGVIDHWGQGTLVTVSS
VL: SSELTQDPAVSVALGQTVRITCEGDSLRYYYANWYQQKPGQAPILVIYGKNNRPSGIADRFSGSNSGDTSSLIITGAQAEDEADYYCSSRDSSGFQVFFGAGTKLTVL

Substitutions are numbered in sequence along the VL above, starting at 1 (not Kabat).
Values are log10 of the apparent Kd in nM; lower means stronger binding.
A pair that was not seen in that replicate is written "ND"; this usually means weak binding, but a binder can also be missed.

| changes | replicates, log10 nM | control signals |
|---|---|---|
| N33E N52T S92P | 3.32 4.55 3.30 | 2 of 9 (3.83) |
| D25C A32M | 3.36 2.45 1.99 | 2 of 9 (2.92) |
| K50N S93R V97P | 2.43 3.08 2.54 | 3 of 9 (4.21) |
| E23H Y30M P54N | 1.31 1.19 0.83 | 6 of 9 (3.91) |
| G94V | 3.01 4.15 2.16 | 2 of 9 (4.19) |
| N52R S55L R90Q | ND ND ND | 1 of 9 (3.56) |
| R28E S89I F95R | 1.88 2.31 1.50 | 4 of 9 (3.69) |
| L27M A32L S88A | ND ND ND | 2 of 9 (4.42) |
| E23D D25I S93P | 3.27 2.74 4.06 | 2 of 9 (3.02) |
| S93I G94R F95K | 3.34 2.57 ND | 4 of 9 (3.28) |
| S93K F95I | 2.83 3.10 2.55 | 3 of 9 (3.61) |
| S26Q R53H F98C | ND ND 3.49 | 3 of 9 (3.33) |
| S93V V97Q F98A | ND 3.76 ND | 6 of 9 (4.09) |
| G24V L27K S88M | 1.93 1.37 1.73 | 0 of 9 |
| N51Y S55E S89D | 2.97 5.64 3.16 | 6 of 9 (3.72) |
| K50P N52G | 2.20 2.51 1.83 | 6 of 9 (3.67) |
| Y31T R53F S92N | ND 3.37 3.09 | 2 of 9 (3.82) |
| G24M D25I G94H | 4.41 3.08 3.17 | 0 of 9 |
| Y31R P54I S92L | 3.30 5.11 3.99 | 0 of 9 |
| S26I N33W K50F | ND ND ND | 0 of 9 |
| D25N K50F F98R | 3.33 3.55 3.32 | 1 of 9 (3.73) |
| P54I R90W S92D | 3.91 3.53 ND | 3 of 9 (3.35) |
| Y29H D91R | 3.15 2.52 1.81 | 1 of 9 (3.43) |
| R28K S88F S89G | 2.76 3.48 ND | 0 of 9 |
| Y29E N52Y G94W | 2.81 3.88 1.81 | 3 of 9 (3.98) |
| D25N S26P N52E | 2.33 2.41 1.92 | 6 of 9 (3.92) |
| A32S S89L S93L | 5.50 ND 3.86 | 2 of 9 (3.56) |
| E23W R53I S88P | 3.62 3.40 4.28 | 2 of 9 (4.45) |
| A32C P54S S92C | ND ND 1.99 | 0 of 9 |
| N51L D91L S92C | 3.20 4.31 4.03 | 4 of 9 (3.55) |
| E23R N52E | 1.33 1.38 0.72 | 5 of 9 (4.11) |
| E23F A32D S55K | 3.72 3.24 ND | 3 of 9 (4.53) |
| G24F A32R K50E | ND ND 2.74 | 0 of 9 |
| G49M S92T G94N | 3.91 ND ND | 1 of 9 (3.88) |
| S26C A32M F95I | ND ND ND | 1 of 9 (4.53) |
| R28T R90T S93L | ND ND 3.65 | 1 of 9 (3.67) |
| Y31H N52F S93A | 2.08 2.03 1.69 | 1 of 9 (4.26) |
| R53S P54A Q96G | 2.53 2.97 2.82 | 5 of 9 (4.30) |
| N51G | 2.27 1.71 1.79 | 2 of 9 (3.20) |
| A32T S88Q S92A | 2.57 2.97 1.99 | 0 of 9 |
| R28C Y31K G94E | ND ND ND | 0 of 9 |
| L27M N33F P54F | 3.71 ND ND | 1 of 9 (2.74) |
| E23T L27Q S88W | 2.99 3.70 3.68 | 4 of 9 (3.87) |
| G49F S88I S92K | 4.12 ND ND | 2 of 9 (3.76) |
| Y29Q D91S F98N | 3.48 2.96 3.05 | 1 of 9 (3.67) |

The opening 4 entries, copied out:

changes,"replicates, log10 nM",control signals
N33E N52T S92P,3.32 4.55 3.30,2 of 9 (3.83)
D25C A32M,3.36 2.45 1.99,2 of 9 (2.92)
K50N S93R V97P,2.43 3.08 2.54,3 of 9 (4.21)
E23H Y30M P54N,1.31 1.19 0.83,6 of 9 (3.91)

In this assay the parent's reference entry averaged 2.31; its copy inside this library read 2.25.
Nonspecific signal, from three strains lacking the peptide, appeared in 28% of pairings of library AAYL52, centred on 3.91 (5% of these signals below 2.90); values are not corrected for it. For each scFv, signals with the empty controls are counted beside the result, with their mean in brackets.

The measurements come from Engelhart et al. 2022 (doi:10.1038/s41597-022-01779-4) through the FLAb antibody collection.